Tested on: migraine headache

magnesium
benefit as migraine prophylactic agent (Example 2 patient, history): without benefit | benefit as migraine prophylaxis (Example 5 patient, history): partially helpful

magnesium oxide
effect on headache frequency (Example 1 patient, riboflavin 200 mg bid, magnesium oxide 500 mg tid and coenzyme Q10 100 mg bid together, after 4-6 weeks): did not affect the frequency of their headaches
